Common to all, as to settings: 10 µM compound, Table 1
One assay deals with Akt (UniProt P31749). Kind of assay: Kinase functional assay (mobility shift), Akt. The class given is biochemical.
A further assay deals with human CK2α-1 (Homo sapiens, UniProt P68400). Kind of assay: ADP-Glo kinase assay, CK2.
The target in the next assay is GSK3β (Homo sapiens, UniProt P49841). Briefly: Kinase functional assay (mobility shift), GSK3β. The class given is biochemical.
The target of the next assay is ERK2 (Homo sapiens, UniProt P28482). Kind of assay: Kinase functional assay (mobility shift), ERK2 (p42). The class given is biochemical.
For the next assay, the target named is p38α (Homo sapiens, UniProt Q16539). Kind of assay: Kinase functional assay (mobility shift), p38α. The class given is biochemical.
The target of the next assay is CDK9 (Homo sapiens, UniProt P50750). Kind of assay: Kinase functional assay (mobility shift), CDK9. The class given is biochemical.

Chains of the proteins cited; added tags and fusions are not shown.
UniProt P31749, whole entry, looked up: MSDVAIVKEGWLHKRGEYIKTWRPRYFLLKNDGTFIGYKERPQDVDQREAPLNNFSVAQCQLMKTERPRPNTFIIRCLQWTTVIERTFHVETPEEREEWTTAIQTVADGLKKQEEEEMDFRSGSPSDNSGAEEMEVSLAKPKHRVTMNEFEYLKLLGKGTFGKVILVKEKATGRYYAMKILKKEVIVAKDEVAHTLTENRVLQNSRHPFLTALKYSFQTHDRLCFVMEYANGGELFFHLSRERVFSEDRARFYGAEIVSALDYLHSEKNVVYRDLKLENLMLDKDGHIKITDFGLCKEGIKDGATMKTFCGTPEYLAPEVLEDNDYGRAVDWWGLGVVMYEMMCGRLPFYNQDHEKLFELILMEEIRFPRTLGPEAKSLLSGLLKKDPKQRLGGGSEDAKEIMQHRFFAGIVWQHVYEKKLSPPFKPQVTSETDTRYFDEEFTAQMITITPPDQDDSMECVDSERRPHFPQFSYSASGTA
UniProt P68400, whole entry: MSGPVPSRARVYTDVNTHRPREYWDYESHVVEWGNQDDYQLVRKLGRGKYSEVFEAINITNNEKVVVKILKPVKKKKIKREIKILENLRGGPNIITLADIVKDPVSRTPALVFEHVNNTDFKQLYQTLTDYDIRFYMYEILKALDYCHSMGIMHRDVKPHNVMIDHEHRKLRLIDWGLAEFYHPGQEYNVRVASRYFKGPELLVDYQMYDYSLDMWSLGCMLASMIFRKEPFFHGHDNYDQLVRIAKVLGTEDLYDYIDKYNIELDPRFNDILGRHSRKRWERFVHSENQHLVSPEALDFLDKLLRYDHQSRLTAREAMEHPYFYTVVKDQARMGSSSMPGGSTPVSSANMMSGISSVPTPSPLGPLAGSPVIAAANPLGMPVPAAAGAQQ
UniProt P49841, whole entry: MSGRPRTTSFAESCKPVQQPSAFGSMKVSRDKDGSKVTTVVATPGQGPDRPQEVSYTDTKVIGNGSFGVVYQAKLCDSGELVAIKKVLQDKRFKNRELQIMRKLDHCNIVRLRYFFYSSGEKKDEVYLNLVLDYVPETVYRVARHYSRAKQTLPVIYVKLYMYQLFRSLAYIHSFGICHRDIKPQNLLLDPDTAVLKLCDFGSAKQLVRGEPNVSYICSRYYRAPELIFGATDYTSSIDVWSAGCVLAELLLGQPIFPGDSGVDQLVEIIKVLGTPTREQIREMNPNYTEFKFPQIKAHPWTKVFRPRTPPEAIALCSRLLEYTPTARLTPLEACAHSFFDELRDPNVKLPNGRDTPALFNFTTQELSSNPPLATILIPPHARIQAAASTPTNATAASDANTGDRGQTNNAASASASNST
UniProt P28482, whole entry: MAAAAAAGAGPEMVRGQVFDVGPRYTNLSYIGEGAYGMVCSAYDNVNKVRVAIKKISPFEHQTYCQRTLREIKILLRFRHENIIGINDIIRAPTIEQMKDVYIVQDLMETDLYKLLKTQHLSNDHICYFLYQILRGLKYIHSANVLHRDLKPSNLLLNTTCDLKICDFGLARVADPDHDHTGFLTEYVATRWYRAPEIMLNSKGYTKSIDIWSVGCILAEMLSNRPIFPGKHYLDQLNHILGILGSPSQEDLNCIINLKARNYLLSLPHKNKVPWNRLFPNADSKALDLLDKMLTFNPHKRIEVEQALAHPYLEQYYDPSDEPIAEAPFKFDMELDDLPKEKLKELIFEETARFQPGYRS
UniProt Q16539, whole entry: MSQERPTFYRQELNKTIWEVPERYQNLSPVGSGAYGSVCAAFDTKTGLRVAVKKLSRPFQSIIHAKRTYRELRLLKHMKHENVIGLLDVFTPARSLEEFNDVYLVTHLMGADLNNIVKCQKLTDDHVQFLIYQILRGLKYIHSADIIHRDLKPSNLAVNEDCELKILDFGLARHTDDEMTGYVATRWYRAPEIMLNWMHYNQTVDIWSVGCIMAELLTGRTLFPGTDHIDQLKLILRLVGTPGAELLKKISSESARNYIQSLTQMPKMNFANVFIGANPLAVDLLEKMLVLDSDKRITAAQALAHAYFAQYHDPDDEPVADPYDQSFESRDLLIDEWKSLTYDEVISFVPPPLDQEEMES
UniProt P50750, whole entry: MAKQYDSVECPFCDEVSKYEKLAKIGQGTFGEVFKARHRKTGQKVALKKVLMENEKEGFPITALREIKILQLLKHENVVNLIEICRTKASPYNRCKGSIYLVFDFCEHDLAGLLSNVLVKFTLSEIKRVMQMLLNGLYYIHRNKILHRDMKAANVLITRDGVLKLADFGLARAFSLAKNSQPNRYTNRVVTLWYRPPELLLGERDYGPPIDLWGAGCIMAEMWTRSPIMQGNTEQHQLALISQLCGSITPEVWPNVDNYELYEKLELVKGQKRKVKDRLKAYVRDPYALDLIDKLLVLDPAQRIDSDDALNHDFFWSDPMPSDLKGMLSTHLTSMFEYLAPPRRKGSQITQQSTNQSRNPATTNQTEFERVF
UniProt O60563, whole entry partner: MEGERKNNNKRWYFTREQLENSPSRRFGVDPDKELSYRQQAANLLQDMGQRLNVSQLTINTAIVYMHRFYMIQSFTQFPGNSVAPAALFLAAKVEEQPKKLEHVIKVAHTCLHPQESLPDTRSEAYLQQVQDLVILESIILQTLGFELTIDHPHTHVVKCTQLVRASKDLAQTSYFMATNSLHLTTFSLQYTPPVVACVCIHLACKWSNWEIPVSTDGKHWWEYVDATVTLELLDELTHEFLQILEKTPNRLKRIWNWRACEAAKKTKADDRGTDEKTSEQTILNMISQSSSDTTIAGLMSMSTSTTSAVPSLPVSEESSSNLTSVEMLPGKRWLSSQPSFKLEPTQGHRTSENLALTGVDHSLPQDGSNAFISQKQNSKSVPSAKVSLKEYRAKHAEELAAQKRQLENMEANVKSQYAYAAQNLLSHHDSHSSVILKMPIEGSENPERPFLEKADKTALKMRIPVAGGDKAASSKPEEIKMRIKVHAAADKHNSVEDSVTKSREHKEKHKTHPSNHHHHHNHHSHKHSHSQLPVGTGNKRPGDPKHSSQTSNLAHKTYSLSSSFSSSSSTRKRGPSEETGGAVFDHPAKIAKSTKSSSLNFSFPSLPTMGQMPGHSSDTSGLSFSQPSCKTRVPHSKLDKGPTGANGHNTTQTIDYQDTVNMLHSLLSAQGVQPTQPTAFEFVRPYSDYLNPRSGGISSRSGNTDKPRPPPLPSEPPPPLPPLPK

Consider `Oc1nc(-c2ccc(C(F)(F)F)cc2)nc2c1CSCC2` [Compound 1, XAV939], for which the Akt inhibition-% on Akt came to 7%. Besides, the CK2 inhibition-% on human CK2α-1 came to 1%. Also, the GSK3β inhibition-% at GSK3β stood at 7%. For the same compound, the p42 inhibition-% at ERK2 came out at 2%. Also, at p38α, the p38 inhibition-% is 3%.
On to `CS(=O)(=O)c1ccc(-c2nnc(/C=C/c3nnc(-c4ccc(C#N)cc4)o3)n2-c2ccccc2Cl)nc1` [Compound G007-LK, G007-LK], for which the Akt inhibition-% on Akt is 1%. On human CK2α-1, this compound had a CK2 inhibition-% of 1%. The GSK3β inhibition-% on GSK3β worked out at 3%. Moreover, at ERK2, the p42 inhibition-% amounted to 3%. In addition, the CDK9 inhibition-% on CDK9 was found to be 9%. Besides, at p38α, the p38 inhibition-% was 3%.

(Values after publication PMC5785997, “2-Phenylquinazolinones as dual-activity tankyrase-kinase inhibitors” (Scientific Reports, 2018).)
